The target of this test is Histone acetyltransferase KAT6A (Homo sapiens, UniProt Q92794). In words: Inhibition of his-tagged human recombinant KAT6A (194 to 810 residues) expressed in baculovirus-infected Sf9 insect cells using H4-derived peptide as substrate incubated for 40 mins in presence of AcCoA by TR-FRET assay. For orientation: In TR-FRET formats the signal depends on donor and acceptor labels being close together.

By UniProt entry, the sequences of proteins in these tests, tags left out.
UniProt Q92794, whole entry: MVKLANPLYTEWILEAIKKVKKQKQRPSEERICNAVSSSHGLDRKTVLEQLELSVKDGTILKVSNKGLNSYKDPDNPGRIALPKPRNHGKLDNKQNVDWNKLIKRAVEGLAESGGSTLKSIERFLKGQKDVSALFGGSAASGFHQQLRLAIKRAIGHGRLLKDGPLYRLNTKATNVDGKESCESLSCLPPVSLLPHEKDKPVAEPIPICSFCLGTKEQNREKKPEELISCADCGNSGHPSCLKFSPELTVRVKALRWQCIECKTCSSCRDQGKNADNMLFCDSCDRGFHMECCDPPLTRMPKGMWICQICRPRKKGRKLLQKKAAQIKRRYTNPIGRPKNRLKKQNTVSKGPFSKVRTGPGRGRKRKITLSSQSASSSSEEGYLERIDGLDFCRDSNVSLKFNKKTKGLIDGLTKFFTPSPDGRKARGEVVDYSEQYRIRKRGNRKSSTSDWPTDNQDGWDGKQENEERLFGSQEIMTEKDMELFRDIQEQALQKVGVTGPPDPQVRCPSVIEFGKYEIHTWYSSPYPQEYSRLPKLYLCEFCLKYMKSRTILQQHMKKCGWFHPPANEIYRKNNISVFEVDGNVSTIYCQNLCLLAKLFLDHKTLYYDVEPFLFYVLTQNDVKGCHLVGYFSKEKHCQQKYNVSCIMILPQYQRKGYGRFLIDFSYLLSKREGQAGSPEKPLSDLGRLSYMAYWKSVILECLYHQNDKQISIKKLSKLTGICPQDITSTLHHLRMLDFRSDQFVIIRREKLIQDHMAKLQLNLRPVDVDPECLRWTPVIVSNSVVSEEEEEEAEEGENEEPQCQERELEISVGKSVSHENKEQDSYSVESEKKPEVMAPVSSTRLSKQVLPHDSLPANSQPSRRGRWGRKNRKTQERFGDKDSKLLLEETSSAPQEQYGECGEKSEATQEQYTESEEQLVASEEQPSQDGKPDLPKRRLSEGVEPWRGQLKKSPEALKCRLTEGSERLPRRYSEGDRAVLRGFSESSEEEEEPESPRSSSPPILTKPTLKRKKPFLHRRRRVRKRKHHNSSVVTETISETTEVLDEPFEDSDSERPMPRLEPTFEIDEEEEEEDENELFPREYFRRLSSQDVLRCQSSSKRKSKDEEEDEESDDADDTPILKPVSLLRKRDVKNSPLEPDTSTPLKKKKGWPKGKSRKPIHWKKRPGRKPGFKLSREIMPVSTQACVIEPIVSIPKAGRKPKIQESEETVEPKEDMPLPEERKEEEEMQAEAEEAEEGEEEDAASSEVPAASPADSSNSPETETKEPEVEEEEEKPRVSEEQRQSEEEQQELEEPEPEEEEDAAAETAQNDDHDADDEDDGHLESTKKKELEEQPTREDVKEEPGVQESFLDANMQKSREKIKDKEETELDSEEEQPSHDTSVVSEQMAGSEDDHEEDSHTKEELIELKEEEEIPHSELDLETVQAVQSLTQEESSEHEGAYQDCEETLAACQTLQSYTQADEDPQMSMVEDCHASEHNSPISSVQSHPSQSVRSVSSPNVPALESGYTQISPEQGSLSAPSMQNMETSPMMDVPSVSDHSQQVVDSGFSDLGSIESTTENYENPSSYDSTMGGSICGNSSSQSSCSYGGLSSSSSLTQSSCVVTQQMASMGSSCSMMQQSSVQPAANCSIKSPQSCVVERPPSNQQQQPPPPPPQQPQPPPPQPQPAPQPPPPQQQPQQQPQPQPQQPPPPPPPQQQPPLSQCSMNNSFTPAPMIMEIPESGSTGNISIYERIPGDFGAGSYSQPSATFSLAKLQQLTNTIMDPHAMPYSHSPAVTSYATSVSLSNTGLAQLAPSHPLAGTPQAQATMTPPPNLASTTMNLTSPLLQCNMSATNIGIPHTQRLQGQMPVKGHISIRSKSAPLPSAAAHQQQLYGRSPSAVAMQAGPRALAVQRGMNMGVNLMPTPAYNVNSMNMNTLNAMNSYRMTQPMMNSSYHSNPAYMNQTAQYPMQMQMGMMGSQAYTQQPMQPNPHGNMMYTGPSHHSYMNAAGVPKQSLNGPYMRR

Each structure is given as a SMILES string.

What is called IC50 is the concentration that inhibits the measured activity by half. Regarding `COc1cc(OC)c2cc(C(=O)NS(=O)(=O)c3ccccc3-c3ccccc3)oc2c1`, the IC50 came out at 0.099 µM.

These data come from ChEMBL document CHEMBL6092206, “Discovery and Characterization of BAY-184: A New Potent and Selective Acylsulfonamide-Benzofuran In Vivo-Active KAT6AB Inhibitor” (J Med Chem, 2024).
